{
  "source": "patent US20070104652A1",
  "about": "“Pharmaceutical spray formulation comprising a hydro fluor alkane and an acylated cyclodextrin” (priority 2003, published 2007)",
  "experiment": "Solubility of peracetylated cyclodextrins in HFA propellants, assessed visually",
  "assay_type": "physicochemical",
  "settings": "equilibrated one week, visual",
  "method": "The solubility of peracetylated cyclodextrins (alpha, beta and gamma) in HFA propellants was assessed visually in clear PET vials crimped with a continuous pMDI valve. Known amounts of cyclodextrins were weighed into the PET vials. Continuous valves were crimped on the vial, and HFAs were added under pressure to the required amount. The samples were left to equilibrate over one week and were visually inspected. The solubility of the modified cyclodextrin at room temperature was evaluated by discriminating between samples that were clear by opposition to those samples that still had solid particles in suspension.",
  "data": [
    {"substance": "peracetylated gamma (γ) cyclodextrin", "values": [
      {"measurement": "solubility in HFA 134a", "setting": "HFA 134a, room temperature", "value": "above 1 % w/w"},
      {"measurement": "solubility in HFA 227", "setting": "HFA 227, room temperature", "value": "above 1 % w/w"}
    ]}
  ]
}
